OPERA 2.9 data: melting point values

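OPERA's authors assembled the values from existing databases and did not measure them anew. One number stands for a compound and property, with no spread given. How each value was measured is not recorded, so precision varies. Where a salt, mixture or single isomer is drawn, the source does not say that exactly this form was tested. Unmarked limits or estimates from the upstream databases cannot be ruled out.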

Melting points are in °C. "via" names the databases from which the curators took the value.

- Cc1nn2cccnc2c1C(=O)O [2-methylpyrazolo[1,5-a]pyrimidine-3-carboxylic acid]: mp 177 °C (via OCHEM)
- Cc1sc(NC(=O)CCl)c(C#N)c1C [2-Chloro-N-(3-cyano-4,5-dimethylthiophen-2-yl)acetamide]: mp 181 °C (via OCHEM)
- Nc1nc(CC(=O)c2ccccc2)cs1 [2-(2-amino-1,3-thiazol-4-yl)-1-phenylethanone]: mp 158 °C (via OCHEM)
- COc1ncc2nccnc2n1 [Pteridine, 2-methoxy-]: mp 150 °C (via QSARDB)
- COc1cccc(NC(=S)NN)c1 [n-(3-methoxyphenyl)hydrazinecarbothioamide]: mp 169 °C (via OCHEM)
- CC(=O)Nc1ccc(SCC(=O)O)cc1 [2-(4-acetamidophenyl)sulfanylacetic Acid]: mp 157 °C (via OCHEM)
- O=C1C(=O)N(CN2CCN(CCO)CC2)c2ccccc21: mp 158 °C (via OCHEM)
- Nc1nc(CCl)nc(Nc2ccccc2)n1 [6-(Chloromethyl)-N~2~-phenyl-1,3,5-triazine-2,4-diamine]: mp 140 °C (via OCHEM)
- COc1cc2c(cc1OC)C(c1ccccc1)N(C(=O)CCl)CC2 (configuration not stated): mp 220 °C (via OCHEM)
- CC1(c2ccc(Br)cc2)NC(=O)NC1=O (configuration not stated) [5-(4-bromophenyl)-5-methylimidazolidine-2,4-dione]: mp 263 °C (via OCHEM)
- CCC(=O)c1ccc(OCC(=O)O)cc1 [(4-Propionyl-phenoxy)-acetic acid]: mp 132 °C (via OCHEM)
- CN(C)S(=O)(=O)c1cc(Cl)c(N)cc1Cl [Benzenesulfonamide, 4-amino-2,5-dichloro-N,N-dimethyl-]: mp 136 °C (via eChemPortal)
- Cc1sc(N)nc1-c1ccc(Cl)cc1 [4-(4-chlorophenyl)-5-methyl-1,3-thiazol-2-amine]: mp 147 °C (via OCHEM)
- c1ccc(CCNc2nc(-c3ccccc3)cs2)cc1 [Fanetizole]: mp 116 °C (via OCHEM)
- O.O=C(O)c1cc(=O)[nH]c(=O)[nH]1: mp 334 °C (via OCHEM)
- O=C(NC(C(=O)O)c1ccccc1)c1ccccc1 (configuration not stated) [(benzoylamino)(phenyl)acetic acid]: mp 199 °C (via OCHEM)
- CN(C)C(=O)c1ccc(O)cc1 [4-hydroxy-N,N-dimethylbenzamide]: mp 157 °C (via OCHEM)
- O=C([O-])c1cc(S(=O)(=O)[O-])ccc1/N=N/[C-](/N=N/c1cc(S(=O)(=O)O)cc(Nc2nc(Cl)nc(Nc3cc(S(=O)(=O)[O-])c(Nc4nc(Cl)nc(Nc5cccc(S(=O)(=O)[O-])c5)n4)cc3S(=O)(=O)[O-])n2)c1[O-])c1ccccc1.[Cu+2].[Na+].[Na+].[Na+].[Na+].[Na+]: mp 170 °C (via eChemPortal)
- COc1cc(C(=O)O)ccc1OCc1ccccc1Cl [4-[(2-chlorobenzyl)oxy]-3-methoxybenzoic acid]: mp 144 °C (via OCHEM)
- Cc1ccc(NC(=O)CCl)c(Br)c1 [N-(2-bromo-4-methylphenyl)-2-chloroacetamide]: mp 170 °C (via OCHEM)
- O=C(O)c1ccc(NC(=O)C2CC2)cc1 [4-[(cyclopropylcarbonyl)amino]benzoic acid]: mp 275 °C (via OCHEM)
- N=c1sccn1CC(=O)O: mp 245 °C (via OCHEM)
- C=CCn1c(=S)[nH]c2cc(Cl)ccc2c1=O [3-Allyl-7-chloro-2-mercapto-3H-quinazolin-4-one]: mp 140 °C (via OCHEM)
- CC(=O)C(N=Nc1ccccc1)C(C)=O [3-(Phenylazo)-2,4-pentanedione]: mp 86.5 °C (via OCHEM)
- CC(C)CC(C)OC(=O)CC(C(=O)OC(C)CC(C)C)S(=O)(=O)[O-].[Na+] (configuration not stated): mp 175 °C (via eChemPortal)
- ClCc1nc(-c2cccnc2)no1 [3-[5-(Chloromethyl)-1,2,4-oxadiazol-3-yl]pyridine]: mp 88 °C (via OCHEM)
- COc1nc2ccc(Br)cc2cc1[C@@H](c1ccccc1)[C@@](O)(CCN(C)C)c1cccc2ccccc12 [Bedaquiline]: mp 118 °C (via PubChem)
- CC(C)(C)c1cc(C(=O)O)n[nH]1 [3-tert-butyl-1H-pyrazole-5-carboxylic acid]: mp 196 °C (via OCHEM)
- O=C(O)C1(c2cccc(Br)c2)CCCC1 [1-(3-Bromophenyl)cyclopentane-1-carboxylic acid]: mp 159 °C (via OCHEM)
- COCCNC(=S)NN [N-(2-Methoxyethyl)hydrazinecarbothioamide]: mp 86 °C (via OCHEM)
- CNc1nc(C)cs1 [N,4-dimethyl-1,3-thiazol-2-amine]: mp 70 °C (via OCHEM)
- Clc1cc(Cl)c(Cl)c(-c2c(Cl)c(Cl)cc(Cl)c2Cl)c1Cl [2,2',3,3',5,5',6,6'-Octachlorobiphenyl]: mp 160 °C (via QSARDB)
- C[N+](C)(CCO)CCCNC(=O)C(O)C(O)C(O)C(O)CO.[Cl-] (configuration not stated) [Quaternium-22]: mp -21.8 °C (via eChemPortal)
- O=C(O)COc1ccc(-c2ccccc2)cc1 [(biphenyl-4-yloxy)acetic acid]: mp 196 °C (via OCHEM)
- O=C(O)c1cc(Cl)c2ccccc2c1O [4-Chloro-1-hydroxy-2-naphthoic acid]: mp 229 °C (via OCHEM)
- O=Cc1sc(Nc2ccccc2)nc1Cl [2-Anilino-4-chloro-1,3-thiazole-5-carbaldehyde]: mp 165 °C (via OCHEM)
- COc1cccc(Nc2nnc(SCC(=O)O)s2)c1: mp 136 °C (via OCHEM)
- NNC(=O)CCN1CCCC1 [3-(pyrrolidin-1-yl)propanehydrazide]: mp 138 °C (via OCHEM)
- NCCO.O=C(O)NCCO: mp -51 °C (via eChemPortal)
- Nc1ccc(OCCC(F)(F)C(F)(F)C(F)(F)C(F)(F)C(F)(F)C(F)(F)F)cc1 [4-[(3,3,4,4,5,5,6,6,7,7,8,8,8-Tridecafluorooctyl)oxy]aniline]: mp 47.5 °C (via ChemicalBook)
- O=C(O)COc1cc(Cl)ccc1Cl [2,5-Dichlorophenoxyacetic acid]: mp 147 °C (via OCHEM)
- O=C1NC(=O)C2CC=CCC12 (configuration not stated) [1,2,3,6-Tetrahydrophthalimide]: mp 136.3 °C (via PubChem, eChemPortal)
- Cc1ccc(Cl)cc1NC(=O)CC#N [N-(5-chloro-2-methylphenyl)-2-cyanoacetamide]: mp 191 °C (via OCHEM)
- CCC(=O)CC#N [3-oxopentanenitrile]: mp 28.5 °C (via OCHEM)
- Cc1ccccc1-c1csc(=N)[nH]1 [4-(2-Methylphenyl)-1,3-thiazol-2(3H)-imine]: mp 81 °C (via OCHEM)
- Cc1ccc(C)c(SCC(=O)O)c1 [Acetic acid, [(2,5-dimethylphenyl)thio]-]: mp 74 °C (via OCHEM)

Source: data files of OPERA 2.9 (Mansouri et al.), github.com/kmansouri/OPERA.